In US4618612A (Medosan Industrie Biochimiche Riunite S.p.A., priority 1983, dated 1986):

System: gastric mucosa
Assay: Gastric tolerance (ulcerogenic activity)
Type: in vivo, male Wistar rats
Conditions: 4 days; for Gastric Damage index: vehicle 8
Procedure: This was studied by conducting tests of ulcerogenic activity in male Wistar rats, weighing 180 g on the average, in groups of 10 animals each. Three doses of each substance were given, and one group of animals was treated with vehicle only in a volume of 10 ml/kg bodyweight. Each dose was given orally for four consecutive days; on the fifth day, the rats were killed and autopsied. The ulcerogenic effect was assessed according to the following scale:
(1) each hemorrhage point ≥1 mm was evaluated as 1 lesion
(2) hemorrhage points smaller than 1 mm were counted as follows:
(b) from 1 to 19:2 lesions
(c) from 1 to 29:3 lesions
(2) gastric mucosa irritation: 1
(3) hemorrahge points <1 mm: 2
(4) hemorrhage points between 1 and 3 mm: 3
(5) hemorrhage points >3 mm: 4
This scale was used to calculate the following gastric damage index: [formula]

**Q.** With Cc1ccc(C(=O)c2ccc(CC(=O)O)n2C)cc1 [Na Tolmetin 2H2 O, 1-methyl-5-p-methylbenzoylpyrrol-2-acetic acid, reference compound] as the molecule, how does the “Gastric Damage index, second figure (after +; difference from vehicle)” value (50 mg/kg oral) read?
**A.** 3

**Q.** And the “Gastric Damage index” value (50 mg/kg oral)?
**A.** 11

**Q.** What about the “Gastric Damage index, second figure (after +; difference from vehicle)” value (100 mg/kg oral) of the same molecule?
**A.** 8

**Q.** What about the “Gastric Damage index” value (100 mg/kg oral) of the same molecule?
**A.** 16

**Q.** What about the “Gastric Damage index, second figure (after +; difference from vehicle)” value (200 mg/kg oral) of the same molecule?
**A.** 9

**Q.** And the “Gastric Damage index” value (200 mg/kg oral)?
**A.** 17
